Selectivity ratio data for 5 compounds are collected here from ChEMBL document CHEMBL1138042, “2-[(4-phenylpiperazin-1-yl)methyl]imidazo(di)azines as selective D4-ligands. Induction of penile erection by 2-[4-(2-methoxyphenyl)piperazin-1-ylmethyl]imidazo[1,2-a]pyridine (PIP3EA), a potent and selective D4 partial agonist” (J Med Chem, 2006).

Amino acid sequences for entries named in this document (tags omitted).
UniProt P14416, whole entry, looked up: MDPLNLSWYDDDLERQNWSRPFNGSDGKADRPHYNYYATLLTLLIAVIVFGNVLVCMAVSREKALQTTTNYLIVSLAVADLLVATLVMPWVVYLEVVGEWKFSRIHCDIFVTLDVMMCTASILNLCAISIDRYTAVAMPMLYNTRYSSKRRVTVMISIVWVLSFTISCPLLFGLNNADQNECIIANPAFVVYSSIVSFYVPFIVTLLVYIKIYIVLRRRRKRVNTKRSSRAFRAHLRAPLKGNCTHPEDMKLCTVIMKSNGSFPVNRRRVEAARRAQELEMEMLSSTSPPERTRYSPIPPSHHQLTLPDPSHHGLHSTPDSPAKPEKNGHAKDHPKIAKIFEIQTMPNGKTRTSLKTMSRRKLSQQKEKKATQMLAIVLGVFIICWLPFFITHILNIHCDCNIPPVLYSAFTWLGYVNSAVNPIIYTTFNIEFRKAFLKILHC
UniProt P21917, whole entry, looked up: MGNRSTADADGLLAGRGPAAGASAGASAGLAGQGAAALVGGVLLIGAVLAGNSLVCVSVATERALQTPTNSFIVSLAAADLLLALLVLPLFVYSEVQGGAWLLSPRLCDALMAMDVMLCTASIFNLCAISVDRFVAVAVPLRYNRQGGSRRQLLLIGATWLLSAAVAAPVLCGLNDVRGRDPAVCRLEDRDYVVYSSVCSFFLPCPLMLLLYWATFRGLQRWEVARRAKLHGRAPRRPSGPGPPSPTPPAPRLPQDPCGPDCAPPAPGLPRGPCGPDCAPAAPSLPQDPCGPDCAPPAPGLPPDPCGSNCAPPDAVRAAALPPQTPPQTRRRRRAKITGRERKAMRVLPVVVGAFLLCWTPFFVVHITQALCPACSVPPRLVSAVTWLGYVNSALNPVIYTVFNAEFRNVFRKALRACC
UniProt P35462, whole entry, looked up: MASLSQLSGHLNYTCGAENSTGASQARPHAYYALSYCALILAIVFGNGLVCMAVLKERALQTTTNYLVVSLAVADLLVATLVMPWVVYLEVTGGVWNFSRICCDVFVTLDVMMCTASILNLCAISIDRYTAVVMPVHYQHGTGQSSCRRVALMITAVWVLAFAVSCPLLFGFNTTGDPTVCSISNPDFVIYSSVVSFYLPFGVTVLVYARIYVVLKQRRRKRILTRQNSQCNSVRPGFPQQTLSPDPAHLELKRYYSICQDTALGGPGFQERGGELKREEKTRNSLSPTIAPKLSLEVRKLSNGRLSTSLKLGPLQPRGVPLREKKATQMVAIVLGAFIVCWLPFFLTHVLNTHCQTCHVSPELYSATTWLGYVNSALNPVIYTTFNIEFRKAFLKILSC

Test [1] deals with T1, Dopamine receptors; D2 & D4 (Homo sapiens) (UniProt P14416+P21917). The experiment in a line: Selectivity for human dopamine D4.4 receptor over dopamine D2(short) receptor. The class given is protein assay.
Test [2] concerns the target Dopamine receptors; D3 & D4 (Homo sapiens) (UniProt P35462+P21917). Put plainly: Selectivity for human dopamine D4.4 receptor over dopamine D3 receptor. It counts as protein assay.
Test [3] addresses T1, Dopamine receptors; D2 & D4 (Homo sapiens). The experiment in a line: Selectivity for human dopamine D4.4 receptor over dopamine D2(long) receptor. The class given is protein assay.
The nature of test [4]: Selectivity for human dopamine D4.4 receptor over porcine dopamine D1 receptor.

`Clc1ccc(N2CCN(Cc3cn4nc(N5CCCCC5)ccc4n3)CC2)cc1Cl`: the Selectivity ratio in test [1], in test [2], in test [3] and in test [4] was over 440 each time.
Turning to `Fc1ccc(N2CCN(Cc3cn4ccncc4n3)CC2)cc1`, the Selectivity ratio in test [1], in test [2], in test [3] and in test [4] was over 440 throughout.
Consider `CN1CCN(c2ccc3nc(CN4CCN(c5ccc(Cl)c(Cl)c5)CC4)cn3n2)CC1`, for which the Selectivity ratio in test [1], in test [2], in test [3] and in test [4] was over 440 in each case.
As to `Fc1ccc(N2CCN(Cc3cn4cccnc4n3)CC2)cc1`, the Selectivity ratio in test [1], in test [2], in test [3] and in test [4] was over 440 each time.
Regarding `Fc1ccc(N2CCN(Cc3cn4nc(Cl)ccc4n3)CC2)cc1`, the Selectivity ratio in test [1] was over 440; in test [2] it was 72; in test [3] it was over 440; in test [4], over 440.
